Where two headings read alike, the source gives them in different places.
Tests used:
MAO-A = MAO-A (Rattus norvegicus, UniProt P21396); conditions: 10 days; for Percent of MAO-A Inhibition, Brain: rat brain; for Percent of MAO-A Inhibition, Liver: rat liver; for % Inhibition MAO-A, calculated from activity (nmol/hour/mg protein) / % Inhibition MAO-A, calculated from dpm / MAO-A activity, Retina / MAO-A dpm ± sd / Percent of MAO-A Inhibition, Retina / MAO-A nmol/hour/mg protein ± sd: rat retina
Protocol: (§1) Rats were sacrificed 2-3 hours after last administration. According to preliminary experiment, in order to obtain enough substance for MAO and protein analysis, 4 retinas (from 2 rats) were combined into one sample, (3 retina samples for MAO per each dose groups). The 6 brains and 6 livers were analyzed separately.

Sequences of proteins named here, by UniProt entry; tags and fusion partners are left off.
UniProt P21396, whole entry: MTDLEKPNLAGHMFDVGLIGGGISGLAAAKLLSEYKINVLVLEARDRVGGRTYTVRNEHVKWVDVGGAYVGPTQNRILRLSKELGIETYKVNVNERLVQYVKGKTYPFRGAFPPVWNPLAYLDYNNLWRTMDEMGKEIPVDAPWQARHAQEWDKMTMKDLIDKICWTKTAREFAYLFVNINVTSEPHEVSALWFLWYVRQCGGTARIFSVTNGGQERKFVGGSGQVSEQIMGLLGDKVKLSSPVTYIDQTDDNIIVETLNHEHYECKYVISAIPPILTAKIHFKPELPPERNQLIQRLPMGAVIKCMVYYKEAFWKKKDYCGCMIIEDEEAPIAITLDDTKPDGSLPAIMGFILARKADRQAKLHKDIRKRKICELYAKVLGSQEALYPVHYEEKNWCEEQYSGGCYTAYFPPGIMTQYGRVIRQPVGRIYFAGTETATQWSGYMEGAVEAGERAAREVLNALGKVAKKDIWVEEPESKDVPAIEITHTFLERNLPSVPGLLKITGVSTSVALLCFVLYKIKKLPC
UniProt P19643, whole entry: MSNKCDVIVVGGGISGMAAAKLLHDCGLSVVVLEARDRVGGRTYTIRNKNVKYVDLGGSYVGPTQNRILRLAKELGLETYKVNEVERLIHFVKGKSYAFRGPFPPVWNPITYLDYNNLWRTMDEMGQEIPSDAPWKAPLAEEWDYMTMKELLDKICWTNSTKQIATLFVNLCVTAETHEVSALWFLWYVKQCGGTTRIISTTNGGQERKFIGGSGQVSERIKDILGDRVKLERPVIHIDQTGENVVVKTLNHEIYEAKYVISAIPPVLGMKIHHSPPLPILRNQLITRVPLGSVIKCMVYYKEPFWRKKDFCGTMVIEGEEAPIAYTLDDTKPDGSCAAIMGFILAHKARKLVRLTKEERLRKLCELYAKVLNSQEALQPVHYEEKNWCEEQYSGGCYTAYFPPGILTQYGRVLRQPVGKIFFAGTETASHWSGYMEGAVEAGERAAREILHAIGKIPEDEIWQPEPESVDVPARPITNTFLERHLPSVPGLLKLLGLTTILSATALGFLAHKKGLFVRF

MAO-B = MAO-B (Rattus norvegicus, UniProt P19643); conditions: 10 days; for % Inhibition MAO-B, calculated from activity (nmol/hour/mg protein) / % Inhibition MAO-B, calculated from dpm / MAO-B activity, Retina / MAO-B dpm ± sd / MAO-B nmol/hour/mg protein ± sd / Percent of MAO-B Inhibition, Retina: rat retina
Protocol: as §1

[1] = P.O 0.41 mg/kg/day, group 7, vs water control
[2] = eye drops 0.0165 mg/kg/day, group 6, vs mannitol control
[3] = eye drops 0.08 mg/kg/day, group 5, vs mannitol control
[4] = eye drops 0.4 mg/kg/day, group 4, vs mannitol control
[5] = eye drops 2.0 mg/kg/day, group 3, vs mannitol control
[6] = eye drops 7.9 mg/kg/day, group 2, vs mannitol control
[7] = eye drops 0.0165 mg/kg/day, group 6
[8] = eye drops 0.08 mg/kg/day, group 5
[9] = eye drops 0.4 mg/kg/day, group 4
[10] = eye drops 2.0 mg/kg/day, group 3
[11] = eye drops 7.9 mg/kg/day, group 2

## C#CCN[C@@H]1CCc2ccccc21 [Rasagiline, R(+)—N-propargyl-1-aminoindan]
MAO-A; [1]
  Percent of MAO-A Inhibition, Brain: 47%
  Percent of MAO-A Inhibition, Liver: 52%
  Percent of MAO-A Inhibition, Retina: 40%
MAO-A; [2]
  Percent of MAO-A Inhibition, Brain: 9%
  Percent of MAO-A Inhibition, Liver: −5%
  Percent of MAO-A Inhibition, Retina: −29%
MAO-A; [3]
  Percent of MAO-A Inhibition, Brain: 22%
  Percent of MAO-A Inhibition, Liver: 7%
  Percent of MAO-A Inhibition, Retina: 35%
MAO-A; [4]
  Percent of MAO-A Inhibition, Brain: 65%
  Percent of MAO-A Inhibition, Liver: 41%
  Percent of MAO-A Inhibition, Retina: 67%
MAO-A; [5]
  Percent of MAO-A Inhibition, Brain: 93%
  Percent of MAO-A Inhibition, Liver: 77%
  Percent of MAO-A Inhibition, Retina: 96%
MAO-A; [6]
  Percent of MAO-A Inhibition, Brain: 97%
  Percent of MAO-A Inhibition, Liver: 94%
  Percent of MAO-A Inhibition, Retina: 97%
MAO-A; P.O 0.41 mg/kg/day, group 7
  % Inhibition MAO-A, calculated from activity (nmol/hour/mg protein): 54%
  % Inhibition MAO-A, calculated from dpm: 40%
  MAO-A activity, Retina: 968 ± 147
  MAO-A dpm ± sd: 968 ± 147 dpm
MAO-A; [7]
  % Inhibition MAO-A, calculated from activity (nmol/hour/mg protein): −66%
  % Inhibition MAO-A, calculated from dpm: −29%
  MAO-A activity, Retina: 1690 ± 215
  MAO-A dpm ± sd: 1690 ± 215 dpm
  MAO-A nmol/hour/mg protein ± sd: 19.89 ± 0.4 nmol/hour/mg protein
MAO-A; [8]
  % Inhibition MAO-A, calculated from activity (nmol/hour/mg protein): 14%
  % Inhibition MAO-A, calculated from dpm: 35%
  MAO-A activity, Retina: 849 ± 136
  MAO-A dpm ± sd: 849 ± 136 dpm
  MAO-A nmol/hour/mg protein ± sd: 10.33 ± 0.89 nmol/hour/mg protein
MAO-A; [9]
  % Inhibition MAO-A, calculated from activity (nmol/hour/mg protein): 68%
  % Inhibition MAO-A, calculated from dpm: 67%
  MAO-A activity, Retina: 435 ± 126
  MAO-A dpm ± sd: 435 ± 126 dpm
  MAO-A nmol/hour/mg protein ± sd: 3.88 ± 0.59 nmol/hour/mg protein
MAO-A; [10]
  % Inhibition MAO-A, calculated from activity (nmol/hour/mg protein): 95%
  % Inhibition MAO-A, calculated from dpm: 96%
  MAO-A activity, Retina: 56 ± 19
  MAO-A dpm ± sd: 56 ± 19 dpm
  MAO-A nmol/hour/mg protein ± sd: 0.59 ± 0.1 nmol/hour/mg protein
MAO-A; [11]
  % Inhibition MAO-A, calculated from activity (nmol/hour/mg protein): 97%
  % Inhibition MAO-A, calculated from dpm: 97%
  MAO-A activity, Retina: 38 ± 10
  MAO-A dpm ± sd: 38 ± 10 dpm
  MAO-A nmol/hour/mg protein ± sd: 0.4 ± 0.03 nmol/hour/mg protein
MAO-A; rats, 0.4 mg/kg/day intraocular vs 0.4 mg/kg/day given orally
  MAO-A inhibition in retina and brain, intraocular in comparison to oral: slightly higher
MAO-B; rat brain, P.O 0.41 mg/kg/day, group 7, vs water control
  Percent of MAO-B Inhibition, Brain: 98%
MAO-B; rat brain, eye drops 0.0165 mg/kg/day, group 6, vs mannitol control
  Percent of MAO-B Inhibition, Brain: 70%
MAO-B; rat brain, eye drops 0.08 mg/kg/day, group 5, vs mannitol control
  Percent of MAO-B Inhibition, Brain: 95%
MAO-B; rat brain, eye drops 0.4 mg/kg/day, group 4, vs mannitol control
  Percent of MAO-B Inhibition, Brain: 98%
MAO-B; rat brain, eye drops 2.0 mg/kg/day, group 3, vs mannitol control
  Percent of MAO-B Inhibition, Brain: 99%
MAO-B; rat brain, eye drops 7.9 mg/kg/day, group 2, vs mannitol control
  Percent of MAO-B Inhibition, Brain: 99%
MAO-B; rat brain, intraocular 0.0165 mg/kg/day
  inhibition of brain MAO-B: does inhibit
MAO-B; rat liver, P.O 0.41 mg/kg/day, group 7, vs water control
  Percent of MAO-B Inhibition, Liver: 98%
MAO-B; rat liver, eye drops 0.0165 mg/kg/day, group 6, vs mannitol control
  Percent of MAO-B Inhibition, Liver: 8%
MAO-B; rat liver, eye drops 0.08 mg/kg/day, group 5, vs mannitol control
  Percent of MAO-B Inhibition, Liver: 73%
MAO-B; rat liver, eye drops 0.4 mg/kg/day, group 4, vs mannitol control
  Percent of MAO-B Inhibition, Liver: 93%
MAO-B; rat liver, eye drops 2.0 mg/kg/day, group 3, vs mannitol control
  Percent of MAO-B Inhibition, Liver: 95%
MAO-B; rat liver, eye drops 7.9 mg/kg/day, group 2, vs mannitol control
  Percent of MAO-B Inhibition, Liver: 98%
MAO-B; rat liver, intraocular 0.0165 mg/kg/day
  inhibition of liver MAO-B: does not inhibit
MAO-B; P.O 0.41 mg/kg/day, group 7
  % Inhibition MAO-B, calculated from activity (nmol/hour/mg protein): 98%
  % Inhibition MAO-B, calculated from dpm: 98%
  MAO-B activity, Retina: 28 ± 10
  MAO-B dpm ± sd: 28 ± 10 dpm
  MAO-B nmol/hour/mg protein ± sd: 0.04 ± 0.01 nmol/hour/mg protein
MAO-B; [1]
  Percent of MAO-B Inhibition, Retina: 98%
MAO-B; [7]
  % Inhibition MAO-B, calculated from activity (nmol/hour/mg protein): 88%
  % Inhibition MAO-B, calculated from dpm: 91%
  MAO-B activity, Retina: 60 ± 24
  MAO-B dpm ± sd: 60 ± 24 dpm
  MAO-B nmol/hour/mg protein ± sd: 0.10 ± 0.04 nmol/hour/mg protein
MAO-B; [2]
  Percent of MAO-B Inhibition, Retina: 91%
MAO-B; [8]
  % Inhibition MAO-B, calculated from activity (nmol/hour/mg protein): 95%
  % Inhibition MAO-B, calculated from dpm: 96%
  MAO-B activity, Retina: 25 ± 3
  MAO-B dpm ± sd: 25 ± 3 dpm
  MAO-B nmol/hour/mg protein ± sd: 0.04 ± 0.01 nmol/hour/mg protein
MAO-B; [3]
  Percent of MAO-B Inhibition, Retina: 96%
MAO-B; [9]
  % Inhibition MAO-B, calculated from activity (nmol/hour/mg protein): 98%
  % Inhibition MAO-B, calculated from dpm: 98%
  MAO-B activity, Retina: 11 ± 9
  MAO-B dpm ± sd: 11 ± 9 dpm
  MAO-B nmol/hour/mg protein ± sd: 0.01 ± 0.01 nmol/hour/mg protein
MAO-B; [4]
  Percent of MAO-B Inhibition, Retina: 98%
MAO-B; [10]
  % Inhibition MAO-B, calculated from activity (nmol/hour/mg protein): 97%
  % Inhibition MAO-B, calculated from dpm: 98%
  MAO-B activity, Retina: 15 ± 2
  MAO-B dpm ± sd: 15 ± 2 dpm
  MAO-B nmol/hour/mg protein ± sd: 0.02 ± 0.00 nmol/hour/mg protein
MAO-B; [5]
  Percent of MAO-B Inhibition, Retina: 98%
MAO-B; [11]
  % Inhibition MAO-B, calculated from activity (nmol/hour/mg protein): 98%
  % Inhibition MAO-B, calculated from dpm: 98%
  MAO-B activity, Retina: 12 ± 8
  MAO-B dpm ± sd: 12 ± 8 dpm
  MAO-B nmol/hour/mg protein ± sd: 0.02 ± 0.01 nmol/hour/mg protein
MAO-B; [6]
  Percent of MAO-B Inhibition, Retina: 98%
